From paper PMC2692108 come the findings set out here.

The test has as its target GFP-actin^G13R (UniProt P60709). The test is described as follows: FRET or BRET. (BRET reads energy transfer from a luciferase to a nearby fluorophore.)

Regarding “DsRed-GPVAT-Tβ4 (from UniProt P62326 1-44) (natural protein)”, the maximum E FRET (acceptor photobleaching) was 23%.
